In this assay the target is T1, bovine serum albumin (BSA) (Bos taurus, UniProt P02769).
T1 construct: purchased Sigma-Aldrich (St. Louis, MO)
Description: Label-free differential scanning fluorimetry, equilibrium-based binding model near BSA melting temperature. The procedure: Bovine serum albumin (lyophilized powder, 99% fatty acid free) was obtained from Sigma-Aldrich (St. Louis, MO). A BSA concentration of 10 μM in pH 7.4 phosphate buffered saline (PBS) was used in each experiment. The solution of BSA was kept at 4 °C prior to use.
Experiments were conducted using a Tycho NT.6 differential scanning fluorimeter (NanoTemper, Munich, Germany). […] Solutions were prepared a day in advance of the experiment and stored at 4 °C. Immediately prior to analysis, each sample was loaded into a 1 mm diameter glass capillary and placed in the instrument. […] Fluorescence intensity was measured at 0.1 °C intervals at emission wavelengths of 330 and 350 nm. The ratio of the intensity at these wavelengths, I350/I330, was used to account for blue shifts in the emission peak wavelengths with increasing temperature. The minimum value of the first derivative of the I350/I330 curve with respect to temperature, denoting the midpoint of the melting transition where the fraction of folded to unfolded protein is 1, was taken as the melting temperature Tm. Each experiment was performed in triplicate.
As described by Eftink and Ghiron[44], baseline subtraction of the raw fluorescence intensity data collected at 350 nm was performed at both high and low temperatures. The plots were then normalized by dividing by the maximum intensity value. […]
In general terms: In DSF a fluorescence change marks the thermal transition of the protein.

By UniProt entry, the sequences of proteins in these tests, tags left out. Residues count along the entry.
UniProt P02769, 25-607: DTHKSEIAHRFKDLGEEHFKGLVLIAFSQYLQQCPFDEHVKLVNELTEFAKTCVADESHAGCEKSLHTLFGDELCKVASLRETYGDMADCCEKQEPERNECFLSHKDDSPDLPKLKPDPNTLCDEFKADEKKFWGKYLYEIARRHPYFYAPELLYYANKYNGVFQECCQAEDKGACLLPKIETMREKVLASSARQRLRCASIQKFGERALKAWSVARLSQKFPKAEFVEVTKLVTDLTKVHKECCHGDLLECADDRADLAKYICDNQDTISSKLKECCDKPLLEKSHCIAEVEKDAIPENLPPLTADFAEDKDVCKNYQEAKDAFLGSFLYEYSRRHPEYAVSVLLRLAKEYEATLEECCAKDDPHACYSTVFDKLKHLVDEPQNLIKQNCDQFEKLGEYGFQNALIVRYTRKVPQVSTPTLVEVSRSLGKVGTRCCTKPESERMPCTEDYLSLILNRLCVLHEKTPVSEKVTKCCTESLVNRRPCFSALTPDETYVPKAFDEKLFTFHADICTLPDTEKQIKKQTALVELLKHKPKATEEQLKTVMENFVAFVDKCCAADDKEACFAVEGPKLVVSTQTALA

Usually Kd stands for the free concentration of one partner at which half of the binding sites on the other are occupied at equilibrium, for simple one-to-one binding.

`O=C(O)C(F)(F)C(F)(F)C(F)(F)C(F)(F)C(F)(F)C(F)(F)C(F)(F)C(F)(F)F` [PFNA, Perfluorononanoic acid] showed a dissociation constant Kd of 1.04 µM. The compound `O=S(=O)(O)C(F)(F)C(F)(F)C(F)(F)C(F)(F)C(F)(F)C(F)(F)C(F)(F)C(F)(F)F` [PFOS, Sodium perfluorooctanesulfonate] had a Kd of 36.6 µM.

The values above are taken from article PMC10948889, “Differential scanning fluorimetry to assess PFAS binding to bovine serum albumin protein” (Scientific Reports, 2024).
